Values quoted from earlier work in patent publication US9700872B1, “Superpolar chromatographic stationary phases and extraction sorbents and their methods of synthesis” (THE FLORIDA INTERNATIONAL UNIVERSITY BOARD OF TRUSTEES, priority 2016, dated 2017).

Conditions: octanol/water; Top 100 EPA Priority Pollutants (Table 2)

For `c1ccc2ccccc2c1` [Naphthalene], the “Log Kow” value is listed as 3.3.
